Source: patent publication US4497812A, “2-Amino-5-aminomethyl-2-oxazolines, compositions and use” (Societe Cortial, S.A., priority 1982, dated 1985)
Like-named read-outs stand apart in the source and are kept apart here.

Assay: in vivo
Conditions: mouse, mice, read-out: Percentage of mortality
Protocol: The toxicity was determined in mice for various ways of administraion.

Structure (SMILES): NC1=NCC(CN2CCN(c3ccccc3)CC2)O1 (centres unmarked) [Example 11]
- mortality (ip, intraperitoneally 200 mg/kg): 0%
- mortality (po, orally 300 mg/kg): 0%
